Columns and labels:
Fibroblast = test: Multiplex assay against human fibroblast; assay type: toxicity, cell-based; conditions: 10 µM, compound concentration 10 uM, replicate 1
HEK-293T = test: Multiplex assay against HEK293T; assay type: toxicity, cell-based; conditions: human, 12 h, 1 µM, compound concentration 1 uM, replicate 2

For `CNC[C@H](O)c1ccc(O)c(O)c1` [EPINEPHRINE], which “Total Cell Count” value (Fibroblast; 0 h) is on record?
Its value is 165.

And the “Total Cell Count” value (Fibroblast; 12 h)?
Its value is 179.

What about the “Total Cell Count” value (HEK-293T) of the same compound?
Its value is 371.

Reference: ChEMBL document CHEMBL5058577, “EUbOPEN Chemogenomics Library 2 (Multiplex)” (2022)
